Literature values as cited in US10729128B2, “Emulsion blocking latex protein and other skin irritants” (BIOTD SOCIEDAD ANONIMA, priority 2014, dated 2020).

Details: in water

- Solubility: immiscible with water
SMILES: CC12CCC(CC1)C(C)(C)O2 [Essence of Eucalyptus]
